Data as given in BindingDB's records for 11591513 (Harvard Medical School, 2001).

Chains of the proteins cited; added tags and fusions are not shown.
UniProt P41143, whole entry, looked up: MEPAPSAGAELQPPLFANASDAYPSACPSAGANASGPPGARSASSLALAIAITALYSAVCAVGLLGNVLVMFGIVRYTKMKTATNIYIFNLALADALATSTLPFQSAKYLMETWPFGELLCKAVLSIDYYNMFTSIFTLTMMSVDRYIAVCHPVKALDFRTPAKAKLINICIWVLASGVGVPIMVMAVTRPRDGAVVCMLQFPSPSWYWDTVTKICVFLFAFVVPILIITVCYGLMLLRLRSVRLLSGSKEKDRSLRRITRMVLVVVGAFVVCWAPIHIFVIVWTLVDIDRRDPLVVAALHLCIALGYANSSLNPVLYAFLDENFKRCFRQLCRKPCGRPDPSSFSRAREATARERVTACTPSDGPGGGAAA

Molecular target: Delta-type opioid receptor (Homo sapiens, UniProt P41143)
Assay: ChEBML_147151

CN(C(=O)Cc1ccc(Cl)c(Cl)c1)[C@@H]1CCCC[C@H]1N1CCCC1
Ki: 2500 nM
